From publication PMC4354947 (Journal of medicinal chemistry, 2012)

Key:
[1] = system: alkaline phosphatase; settings: 37 °C, 8 h time course
[2] = Hydrolysis in human blood serum; format: in vitro ADME; settings: for t1/2 (h) human blood serum: 37 °C
[3] = system: human eNPP1; assay: Resistance to degradation by human eNPP1; format: in vitro ADME; settings: after 20 min, 37 °C, pH 8.5

Row | Substance | hydrolysis by alkaline phosphatase, in words [1] | fold enhancement of half-life in human serum compared with ADP ([2]; human) | % hydrolysis of human eNPP1 [3] | t1/2 (h) human blood serum [2]
1 | P1-Borano P1,P3-5′-Di-2-methylthioadenosine 5′-Triphosphate [analogue 4] | completely resistant to hydrolysis | 7 fold |  | 
2 | P^1-Borano P^1,P^3-5′-Di-2-methylthioadenosine 5′-Triphosphate, A Isomer [analogue 4A] |  |  | 0% | 14 h
3 | P^1-Borano P^1,P^3-5′-Di-2-methylthioadenosine 5′-Triphosphate, B Isomer [analogue 4B] |  |  | 5% | 14 h
